By IC50 is commonly meant the concentration needed to halve the response being measured.

Sequences of proteins named here, by UniProt entry; tags and fusion partners are left off. Residues count along the entry.
UniProt P22607, 23-806 limits assumed: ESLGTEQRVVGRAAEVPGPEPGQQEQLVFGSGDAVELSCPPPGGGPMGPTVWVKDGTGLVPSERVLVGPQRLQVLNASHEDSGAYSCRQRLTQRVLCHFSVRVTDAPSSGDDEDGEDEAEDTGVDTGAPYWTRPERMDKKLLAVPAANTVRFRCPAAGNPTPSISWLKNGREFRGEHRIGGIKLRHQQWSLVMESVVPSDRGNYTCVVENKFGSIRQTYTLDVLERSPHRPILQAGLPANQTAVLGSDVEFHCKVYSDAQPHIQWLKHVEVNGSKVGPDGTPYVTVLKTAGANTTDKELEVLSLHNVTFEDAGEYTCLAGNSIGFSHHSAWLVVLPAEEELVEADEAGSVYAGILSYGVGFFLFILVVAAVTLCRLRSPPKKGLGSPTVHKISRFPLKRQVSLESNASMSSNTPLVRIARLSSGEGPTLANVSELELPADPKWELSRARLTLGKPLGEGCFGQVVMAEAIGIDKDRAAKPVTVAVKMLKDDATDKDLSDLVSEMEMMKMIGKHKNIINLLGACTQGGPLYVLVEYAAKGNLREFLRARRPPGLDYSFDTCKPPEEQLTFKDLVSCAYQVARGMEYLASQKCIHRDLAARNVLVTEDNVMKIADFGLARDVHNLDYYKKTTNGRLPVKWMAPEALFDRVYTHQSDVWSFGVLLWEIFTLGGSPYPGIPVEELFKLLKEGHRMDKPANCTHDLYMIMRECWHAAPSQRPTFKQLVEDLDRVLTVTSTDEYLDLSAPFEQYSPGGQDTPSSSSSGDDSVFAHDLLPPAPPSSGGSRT
UniProt P11362, 22-822 limits assumed: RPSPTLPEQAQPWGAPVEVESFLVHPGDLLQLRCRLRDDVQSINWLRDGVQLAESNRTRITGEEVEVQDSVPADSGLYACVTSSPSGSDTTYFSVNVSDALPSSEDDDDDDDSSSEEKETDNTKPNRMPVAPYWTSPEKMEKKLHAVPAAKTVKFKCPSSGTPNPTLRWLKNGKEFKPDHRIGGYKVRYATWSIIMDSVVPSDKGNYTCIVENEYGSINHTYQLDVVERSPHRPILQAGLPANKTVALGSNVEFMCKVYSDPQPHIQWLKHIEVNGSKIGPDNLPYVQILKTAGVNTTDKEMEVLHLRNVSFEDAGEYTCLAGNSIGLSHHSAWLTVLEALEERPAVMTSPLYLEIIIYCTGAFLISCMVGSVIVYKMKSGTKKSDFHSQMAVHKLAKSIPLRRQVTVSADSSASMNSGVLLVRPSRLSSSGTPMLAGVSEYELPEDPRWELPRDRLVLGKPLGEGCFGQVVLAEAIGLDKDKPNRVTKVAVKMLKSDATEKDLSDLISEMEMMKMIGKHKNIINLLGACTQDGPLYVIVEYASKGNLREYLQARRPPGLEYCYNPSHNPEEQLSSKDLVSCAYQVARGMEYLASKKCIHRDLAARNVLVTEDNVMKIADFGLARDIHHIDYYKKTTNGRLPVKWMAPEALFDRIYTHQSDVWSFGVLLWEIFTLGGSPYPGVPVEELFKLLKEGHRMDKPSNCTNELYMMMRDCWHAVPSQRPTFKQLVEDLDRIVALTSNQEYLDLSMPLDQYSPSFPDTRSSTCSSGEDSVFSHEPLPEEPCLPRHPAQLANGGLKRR
UniProt P21802, 22-821 limits assumed: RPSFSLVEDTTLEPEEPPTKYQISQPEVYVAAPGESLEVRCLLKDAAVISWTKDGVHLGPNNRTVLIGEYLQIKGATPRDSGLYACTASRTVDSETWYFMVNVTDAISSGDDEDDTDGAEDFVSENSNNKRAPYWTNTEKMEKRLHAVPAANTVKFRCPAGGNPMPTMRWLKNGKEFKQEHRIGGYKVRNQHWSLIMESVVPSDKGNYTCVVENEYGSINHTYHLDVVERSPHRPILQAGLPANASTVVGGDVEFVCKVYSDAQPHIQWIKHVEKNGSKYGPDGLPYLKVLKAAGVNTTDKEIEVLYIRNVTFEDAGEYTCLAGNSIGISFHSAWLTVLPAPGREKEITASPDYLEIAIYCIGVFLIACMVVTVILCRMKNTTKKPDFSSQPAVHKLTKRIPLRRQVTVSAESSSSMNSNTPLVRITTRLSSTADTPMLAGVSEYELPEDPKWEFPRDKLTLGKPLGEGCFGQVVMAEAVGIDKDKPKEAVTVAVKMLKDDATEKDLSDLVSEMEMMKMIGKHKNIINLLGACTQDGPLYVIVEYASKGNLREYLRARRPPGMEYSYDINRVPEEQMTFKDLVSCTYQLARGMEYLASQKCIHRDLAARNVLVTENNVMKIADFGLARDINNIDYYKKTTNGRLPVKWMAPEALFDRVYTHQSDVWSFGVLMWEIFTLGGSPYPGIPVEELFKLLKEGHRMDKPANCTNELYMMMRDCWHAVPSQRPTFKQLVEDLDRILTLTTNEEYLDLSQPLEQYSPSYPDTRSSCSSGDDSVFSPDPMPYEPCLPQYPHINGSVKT

The structures appear in SMILES notation. Like-named read-outs stand apart in the source and are kept apart here.

Drawing on patent publication US9701680B2, “Pyrimidine and pyridine compounds and their usage” (HUTCHISON MEDIPHARMA LIMITED, priority 2013, dated 2017), this text covers IC50 for two compounds.

Test [1] addresses FGFR3 kinase (Homo sapiens, UniProt P22607). The test is described as follows: Z-Lyte Kinase Assay of FGFR3. Type of test: biochemical. The following applies: read-out: FGFR3 (Z-lyte) IC50.
For test [2], the system named is KG-1. The test is described as follows: Cellular Proliferation Assay (Cell Counting Kit-8), KG-1. The following applies: read-out: KG1 IC50; KG-1 cells, 72 hours. On the technique in general: Formazan colour is commonly taken as a measure of viable cells.
Test [3] relates to RT-112. The test is described as follows: Cellular Proliferation Assay (Cell Counting Kit-8), RT-112. The following applies: read-out: RT-112 IC50; RT-112 cells, 72 hours.
Test [4] concerns SNU-16. The test is described as follows: Cellular Proliferation Assay (Cell Counting Kit-8), SNU-16. The class given is cell-based. The following applies: read-out: SNU-16 IC50; SNU-16 cells, 72 hours.
For test [5], the target named is Recombinant human FGFR1 (Homo sapiens, UniProt P11362). The test is described as follows: Transcreener Kinase Assay of FGFR1. The class given is biochemical. The following applies: read-out: FGFR1 (FP) IC50.
The target in test [6] is Recombinant human FGFR2 (Homo sapiens, UniProt P21802). The test is described as follows: Transcreener Kinase Assay of FGFR2. The following applies: read-out: FGFR2 (FP) IC50.

As for `CNC(=O)c1cc(OC)c(F)c(COc2cnc(Nc3ccnc(N4C[C@@H](C)N[C@@H](C)C4)c3)nc2)c1F`, the IC50 in test [1] (Z-lyte) came out at 34 nM; in test [2], 134 nM; in test [3], 80 nM; in test [4] it was 37 nM; in test [5] (FP), 44 nM; in test [6] (FP) it was 23 nM.
Turning to `CCN(CC)CCNC(=O)c1ccc(Nc2ncc(CCc3cc(C(=O)NC)cc(OC)c3F)cn2)cc1`, the IC50 in test [1] stood at 11 nM; in test [2], 805 nM; in test [3] it was 560 nM; in test [4], 70 nM; in test [5] it was 19 nM; in test [6] it was 8 nM.
